Columns and labels:
[1] = system: MCF7/luc cells pulmonary metastases; assay: Artificial lung metastases treated with liposomes; type: in vivo, mouse; conditions: 7 weeks after vein inoculation, three once-weekly treatments
Method: Preparation of liposomes. Unilamellar vesicles consisting of PC/Chol/mPEG-2000-DSPE (47/47/6% molar ratio) have been prepared by means of lipid film hydration. Briefly, the composition of phospholipids (PC), (Chol and MPEG-2000-DSPE), has been dissolved in a small volume of methanol/chloroform (50/50) mixture. Successively the solvent allowed to be evaporated under mild nitrogen flow. For the preparation of empty liposomes, the lipid film has been hydrated with 5 ml of HBS isotonic buffer (140 mM NaCl and 10 mM Hepes) using vortex mixer for 1 hr. For loading liposomes with 1257 phosphopeptide the freezing-thawing cyclic method has been used. The lipid film has been hydrated with 2.5 m of HBS buffer. The empty liposome suspension has been mixed with 2.5 ml of a solution containing 500 M of 1257 phosphopeptide in HBS buffer. Then the solution has been frozen at −196° C. in liquid nitrogen and thawed over 5 minutes at 30° C. in thermostated bath for 10 consecutive cycles in order to allow the peptide penetration into liposomes. […]
Since the object of the work is to inhibit or reduce the metastasis formation, it has been verified whether 1257 phosphopeptide was suitable not only to reduce the tumour, but also cell metastatic ability. To this purpose artificial metastases have been generated by vein inoculation of MCF7/luc cells in order to visualize tumours through luminescence. […]

BT474 xenograft = assay: Electroporation tumour therapy of BT474 xenografts; type: in vivo, SCID mice; conditions: Herceptin i.p. (FIG. 11A)
Method: Xeno-grafts. In vivo tests have been carried out using 40 day old SCID female mice (Harlan Laboratories, Milan, IT). At day 0, animals have been totally anesthetized with intramuscular injection of 400 μg/animal (average weight 25 g) of Zoletil (Virbac) containing 0.12% Xylor (Xylazine), and transplanted subcutaneously (s.c.), in intrascapular mouse region with pellet of […] (1.7 mg/sustained release pellet over 60 days, Innovative Research of America, Sarasota, Fla.). On the next day, 5×10^6 proliferating and scr and 1257 peptide previously transfected, as above described, MCF7 or BT474 cells, have been re-suspended in 0.1 ml of Matrigel (BD Biosciences) and subcutaneously inoculated in each mouse. Herceptin treatment involved intraperitoneal injection of 250 ul of sterile PBS containing 500 ug of antibody, two times weekly. Tumour growth has been monitored two times weekly using calibration along two orthogonal axes: length (L) and […]. The tumour volume (V) has been calculated using the formula V=L*(W2)/2. […]
Electroporation tumour therapy. […] As a further control we have analyzed two groups of not peptide injected animals, except that one of two was subjected to electroporation. Therapy has been repeated once weekly, and tumour size monitored up to 70 days. […]

Herceptin: humanized monoclonal antibody against HER2 receptor extracellular domain [reference compound]
lung metastases (bioluminescence) [1]: progression of lung metastasis occurs | tumour mass compared to not treated control (BT474 xenograft): reduces very remarkably the tumour mass

From US20130259929A1, “USE OF A PHOSPHOPEPTIDE ABLE TO BLOCK HER3/P85 INTERACTION FOR THE TREATMENT OF HER2 HYPER-EXPRESSING TUMOURS” (priority 2010, published 2013)
